Source: patent EP0759299B1, “Potentiation of serotonin response” (ELI LILLY AND COMPANY, priority 1995, dated 1997)

Test system: 5-HT
Test: Microdialysis assay of monoamines in hypothalamus of conscious rats: 5-HT
Assay type: in vivo, Sprague-Dawley rats
Details: percent of baseline; for % 5-HT: fluoxetine 10 mg/kg i.p. at 100 min, average, N=5; for 5-HT (%): pindolol s.c. infusion 50 mg/kg/hr from 120 min, single animal
Procedure: Sprague-Dawley rats (Harlan or Charles River) weighing 270-300 grams were surgically implanted with microdialysis probes under chloral hydrate/pentobarbital anesthesia (170 and 36 mg/kg i.p. in 30% propylene glycol, 14% ethanol) (Perry and Fuller, Effect of fluoxetine on serotonin and dopamine concentration in rat hypothalamus after administration of fluoxetine plus L-5-hydroxytryptophan, Life Sci., 50, 1683-90 (1992)). A David Kopf stereotaxic instrument was used to implant the probe unilaterally in the hypothalamus at coordinates rostral -1.5 mm, lateral -1.3 mm, and ventral -9.0 mm (Paxinos and Watson, 1986). After a 48 hour recovery period, rats were placed in a large plastic bowl with a mounted liquid swivel system (CMA/120 system for freely moving animals, Bioanalytical Systems, West Lafayette, IN). Filtered artificial cerebrospinal fluid (CSF) (150 mM NaCl, 3.0 mM KCl, 1.7 mM CaCl2, and 0.9 mM MgCl2) was perfused through the probe at a rate of […]. The output dialysate line was fitted to a tenport HPLC valve with a 20 µl loop. At the end of each 30 minute sampling period, dialysate collected in the loop was injected on an analytical column (Spherisorb 3 µ ODS2, 2X150 mm, Keystone Scientific).
The method used to measure monoamines was as described by Perry and Fuller (1992). Briefly, dialysate collected in the 20 µl loop was assayed for 5-HT, NE and DA. The 20 µl injection went onto the column with a mobile phase which resolved NE, DA, and 5-HT: 75 mM potassium acetate, 0.5 mM ethylenediaminetetraacetic acid, 1.4 mM sodium octanesulfonic acid and 8% methanol, pH 4.9. The mobile phase for the amine column was delivered with a flow programmable pump at an initial flow rate of 0.2 ml/min increasing to 0.3 ml/min at 5 min then decreasing back to 0.2 ml/min at 26 min with a total run time of 30 min. Flow programming was used to elute the 5-HT within a 25 min time period. The electrochemical detector (EG&G, Model 400) for the amine column was set at a potential of 400 mV and a sensitivity of 0.2 nA/V. The data was collected and analyzed with a Hewlett-Packard HP1000 chromatography system which measured peak heights and calculated sample concentrations. Basal levels were measured for at least 90 minutes prior to drug administration.
Extracellular levels of the amines in microdialysates were calculated by comparing peak heights with those of 50 pmole standards. The mean value of the four samples immediately preceding drug administration served as the basal level for each experiment and data was converted to percent of basal. Paired t-tests were used to compare the mean of the basal values from the time point immediately preceding drug administration to those of each time point thereafter.

## CNCCC(Oc1ccc(C(F)(F)F)cc1)c1ccccc1 (racemic) [fluoxetine, N-methyl-3-(p-trifluoromethylphenoxy)-3-phenylpropylamine]
Test 3, 120 min
  % 5-HT: 115.3%
Test 3, 140 min
  % 5-HT: 129.0%
Test 3, 160 min
  % 5-HT: 163.6%
Test 3, 180 min
  % 5-HT: 101.6%
Test 3, 200 min
  % 5-HT: 141.5%
Test 3, 220 min
  % 5-HT: 158.2%
Test 3, 240 min
  % 5-HT: 155.7%
Test 3, 260 min
  % 5-HT: 118.5%
Test 3, 280 min
  % 5-HT: 167.3%
Test 3, 300 min
  % 5-HT: 126.6%
Test 3, 320 min
  % 5-HT: 187.7%
Test 3, 340 min
  % 5-HT: 190.1%

## CC(C)NCC(O)COc1cccc2[nH]ccc12 (racemic) [pindolol, 4-(2-hydroxy-3-isopropylaminopropoxy)-indole]
Test 2, 150 min
  5-HT (%): 67.7%
Test 2, 180 min
  5-HT (%): 64.7%
Test 2, 210 min
  5-HT (%): 27.4%
Test 2, 240 min
  5-HT (%): 18.8%
